In ChEMBL document CHEMBL5728910, “Compositions for treating neurodegenerative diseases” (2022) one finds Ki data, which are given here for one compound.

Amino acid sequences for entries named in this document (tags omitted).
UniProt Q60492, whole entry: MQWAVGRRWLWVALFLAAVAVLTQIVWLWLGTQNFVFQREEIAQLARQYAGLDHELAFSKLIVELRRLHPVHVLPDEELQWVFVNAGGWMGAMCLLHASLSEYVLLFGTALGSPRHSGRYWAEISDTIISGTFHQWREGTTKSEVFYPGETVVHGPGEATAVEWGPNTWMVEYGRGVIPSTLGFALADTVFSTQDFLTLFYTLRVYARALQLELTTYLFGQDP

This experiment has as its target Sigma non-opioid intracellular receptor 1 (Cavia porcellus, UniProt Q60492). Put plainly: Competitive Radioligand Binding Assay 2: The affinity of test compounds at sigma-1 and sigma-2 receptors was also determined by displacement of different known labeled sigma-2 or sigma-1 ligands. Filtration assays were conducted according the previously published procedure (Xu, et al., 2005). Test compounds were dissolved in N,N-Dimethylformamide (DMF), dimethyl sulfoxide (DMSO) or ethanol and then diluted in 50 mM Tris-HCl pH 7.4 buffer containing 150 mM NaCl and 100 mM EDTA. Membrane homogenates were made from guinea pig brain for sigma-1 binding assay and rat liver for sigma-2 binding assay. Membrane homogenates were diluted with 50 mM Tris-HCl buffer, pH 8.0 and incubated at 25° C. in a total volume of 150 uL in 96 well plates with the radioligand and test compounds with concentrations ranging from 0.1 nM to 10 uM. After incubation was completed, the reactions were terminated by the addition of 150 uL of ice-cold wash buffer (10 mM Tris HCl, 150 mM NaCl, pH 7.4) using a 96 channel transfer pipette (Fisher Scientific, Pittsburgh, Pa.) and the samples harvested and filtered rapidly through 96 well fiber glass filter plate (Millipore, Billerica, Mass.) that had been presoaked with 100 uL of 50 mM Tris-HCl buffer. Each filter was washed four times with 200 uL of ice-cold wash buffer (10 mM Tris-HCl, 150 mM NaCl, pH 7.4). […].

pKi: −log10 of the molar value.

In the case of `CC(C)=CC(CC(C)(C)c1ccc(C(F)(F)F)cc1)N1CCC(C)(C)CC1` (stereo unspecified), the pKi is 8.39.

For orientation: pKi means −log10 of the Ki, conventionally taken in molar units.
